Literature values in US5360612A, “Pharmaceutical compositions containing triazole derivatives for rectal administration” (Pfizer Inc., priority 1992, dated 1994).

Conditions: in vivo

SMILES: COc1ccc2c3c1O[C@H]1[C@@H](O)C=C[C@H]4[C@@H](C2)N(C)CC[C@@]341 [codeine]
- bioavailability from suppository fatty bases: do not show good bioavailability
